Results taken from ChEMBL document CHEMBL1122015, “Rigid analogues of dopamine: synthesis and interaction of 6-exo- and 6-endo-(3',4'-dihydroxyphenyl)-2-azabicyclo[2.2.2]octanes with dopamine uptake sites and receptors” (J Med Chem, 1982).

Organism: Rattus norvegicus
Assay: Effect on stimulatory activity of exogenous DA toward DA-sensitive adenylate cyclase activity in rat striatal homogenates
Format: functional, organism-based

Row | Structure (SMILES) | Activity
1 | NCCc1ccc(O)c(O)c1.Oc1ccc([C@H]2CC3CC[C@H]2NC3)cc1O (stereo in doubt; form 1) | 183%
2 | NCCc1ccc(O)c(O)c1.Oc1ccc([C@H]2CC3CC[C@H]2NC3)cc1O (stereo in doubt; form 2) | 169%
